{"source": "paper PMC5320532", "about": "(2017)", "key": {"P-gp": {"system": "P-gp", "settings": "dot = substrate; collated from literature ref 74, 75, 76; cited from earlier work"}, "[1]": {"system": "P-gp-transfected MDCK cells", "settings": "dog"}, "[2]": {"system": "mock-transfected HEK293 cells", "settings": "human"}, "[3]": {"system": "human hepatocytes cultured for 24 h in monolayer format"}, "[4]": {"system": "P-gp-transfected MDCK cells (+ elacridar)", "settings": "dog, MDCK-MDR1"}, "[5]": {"system": "P-gp-KO (CRISPR) MDCK cells", "settings": "dog"}, "[6]": {"system": "freshly isolated human hepatocytes in suspension"}, "MDCK II wild-type cells": {"system": "MDCK II wild-type cells", "settings": "dog"}}}
{"smiles": "COc1cc2nc(N3CCN(C(=O)c4ccco4)CC3)nc(N)c2cc1OC", "note": "[Prazosin]", "values": [{"measurement": "P-gp substrate", "setting": "P-gp", "result": "●"}]}
{"smiles": "CN(CCOc1ccc(CC2SC(=O)NC2=O)cc1)c1ccccn1", "note": "(centres unmarked) [Rosiglitazone]", "values": [{"measurement": "intracellular bioavailability (Fic)", "setting": "[1]", "result": "0.65±0.13"}, {"measurement": "intracellular bioavailability (Fic)", "setting": "[2]", "result": "1.1±0.1"}, {"measurement": "intracellular bioavailability (Fic)", "setting": "[3]", "result": "3.9±1.2"}, {"measurement": "intracellular bioavailability (Fic)", "setting": "[4]", "result": "0.99±0.14"}, {"measurement": "intracellular bioavailability (Fic)", "setting": "[5]", "result": "1.4±0.3"}, {"measurement": "intracellular bioavailability (Fic)", "setting": "[6]", "result": "3.1±0.9"}, {"measurement": "intracellular bioavailability (Fic)", "setting": "MDCK II wild-type cells", "result": "0.81±0.20"}]}
